The target in this test is Alpha-2A adrenergic receptor (Sus scrofa, UniProt P18871).

Amino acid sequences for entries named in this document (tags omitted). Residues count along the entry.
UniProt P18871, 16-465: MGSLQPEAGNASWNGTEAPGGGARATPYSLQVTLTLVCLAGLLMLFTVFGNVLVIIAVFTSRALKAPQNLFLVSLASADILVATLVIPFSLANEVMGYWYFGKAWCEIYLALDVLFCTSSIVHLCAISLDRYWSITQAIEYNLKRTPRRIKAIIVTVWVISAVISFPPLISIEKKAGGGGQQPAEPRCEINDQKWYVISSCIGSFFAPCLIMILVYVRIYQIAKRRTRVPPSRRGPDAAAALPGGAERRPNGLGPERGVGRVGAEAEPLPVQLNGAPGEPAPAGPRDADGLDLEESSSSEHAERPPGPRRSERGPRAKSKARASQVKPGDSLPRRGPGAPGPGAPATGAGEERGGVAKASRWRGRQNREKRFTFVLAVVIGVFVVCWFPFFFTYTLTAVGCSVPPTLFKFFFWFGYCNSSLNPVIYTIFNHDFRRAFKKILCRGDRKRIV

What is called Ki is the equilibrium dissociation constant of an inhibitor or competing ligand from its target. A higher Ki goes with lower affinity.

Consider `COC(=O)[C@@H]1[C@H]2C[C@H]3c4[nH]c5ccccc5c4CCN3C[C@@H]2CC[C@@H]1O` [yohimbic acid methyl ester], for which the affinity, expressed as Ki, was 0.26 nM.

The values are drawn from BindingDB's records for PubMed 7903385 (Creighton University, 1993).
